{
  "sequences": {"note": "By UniProt entry, the sequences of proteins in these tests, tags left out.", "UniProt D6N9X1, entry or part of it V150M": "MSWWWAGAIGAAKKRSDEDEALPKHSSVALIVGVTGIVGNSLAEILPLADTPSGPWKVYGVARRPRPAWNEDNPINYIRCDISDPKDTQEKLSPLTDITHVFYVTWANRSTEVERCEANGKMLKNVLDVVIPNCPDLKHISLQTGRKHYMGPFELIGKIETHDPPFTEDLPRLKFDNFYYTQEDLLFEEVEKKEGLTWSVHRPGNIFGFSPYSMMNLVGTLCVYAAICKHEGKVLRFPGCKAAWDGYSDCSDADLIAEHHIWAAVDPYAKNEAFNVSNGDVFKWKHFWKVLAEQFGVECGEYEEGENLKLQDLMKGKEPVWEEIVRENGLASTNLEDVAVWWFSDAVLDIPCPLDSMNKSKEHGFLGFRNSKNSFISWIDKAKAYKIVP"},
  "source": "paper PMC6172241",
  "about": "“A multisubstrate reductase from Plantago major: structure-function in the short chain reductase superfamily” (Scientific Reports, 2018)",
  "biological_target": "PmMOR (P. major multisubstrate oxido-reductase) (Plantago major, UniProt D6N9X1, V150M)",
  "experiment": "crystal structure",
  "settings": "ternary complex with NADP+, 1.46 Å; two citral conformations; geranial/neral mixture",
  "data": [
    {"smiles": "CC(C)=CCC/C(C)=C/C=O", "note": "(mixture of isomers) [citral]", "values": [
      {"measurement": "crystal structure", "result": "5MLH, 5MLR, 5MLM and 6GSD for PmMOR/NADP^+/8-oxogeranial, PmMOR^V150M/NADP^+/citral"}
    ]}
  ]
}
